# Most compounds without a hit are left out; they make up all but 0.46% or so of the library.
# GIV Gai3 FP = GIV-Galpha-i interaction inhibition. P08753. Galpha-i3/FITC-GIV peptide fluorescence polarization, 90 min; active compounds read low; scaled: aluminum fluoride 0%, vehicle 100%. percent of control (FP), % (test concentration not listed). 210,000 compounds, 0.42% hits. AID 1224905;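 active = replicate mean at 85% of control or lower, very high polarization wells dropped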;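 also: lower values mean more displacement of the GIV peptide from Galpha-i3; wells of about 15 µL received 100 nL stock; the first replicate is given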
# HCMV NEC inh = disrupts HCMV UL50-UL53 complex binding; HTRF UL50-UL53 interaction, normalized percent inhibition; inhibition, % (no concentration beside the values); 0.15% of 190,000 active; in the data active means inhibition above about 27%, passing the limit was not always enough
# GIV Gai FP conf = confirmation of inhibitors of GIV binding to rat Galpha-i3; shares compounds with GIV Gai3 FP; FITC-GIV peptide binding to Galphai3, fluorescence polarization; active compounds read low; fluorescence polarization, mP at 100 µM; 38% of 580 active; AID 1259350;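 active means inhibition score of 15 or more, meaning 100 minus mean polarization as percent of control over three replicates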;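 further: lower mP means peptide displaced from Galphai3 so more inhibition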
# GIV Gai AS conf = confirmation of inhibitors of GIV binding to human Galpha-i3. AID 1259351. 39% of 580 active. shares compounds with GIV Gai3 FP. AlphaScreen counts at 100 µM. AlphaScreen Galphai3-GIV binding, purified proteins, 90 min; active compounds read low;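 active means inhibition score at or above a set limit, where the score is 100 minus the three-replicate mean percent of control signal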
# * marks the source's active call; other numbers are inactive results; x = no result.
# Letter code: A = GIV Gai3 FP; B = HCMV NEC inh; C = GIV Gai FP conf; D = GIV Gai AS conf
1	CCOC(=O)c1ccc2c(c1)N(C(CC)C(=O)Nc1cccc(OC)c1)C(=O)c1ccccc1S2(=O)=O (configuration not stated)
  A = 99.5	B = 6.6	C = x	D = x

2	CCOc1ccc(N/C(SCc2ccc(C)cc2)=C(/C#N)C(=O)Nc2ccccc2)cc1
  A = 107.6	B = x	C = x	D = x

3	Cc1ccccc1C(=O)Nc1cc(C)c2c(=O)oc3ccccc3c2n1
  A = 109.4	B = x	C = x	D = x

4	COc1cc(C(=O)Nc2cc(C)c3c(=O)oc4ccccc4c3n2)cc(OC)c1OC
  A = 152.4	B = 11.7	C = 72.9	D = 37152

5	O=C(Nc1ccc(F)cc1)c1cc2ccccn2n1
  A = 104.7	B = -22.6	C = x	D = x

6	Cc1nn(-c2ccc(Cl)cc2)c2sc(C(=O)NC3CCCc4ccccc43)cc12 (configuration not stated)
  A = 101.6	B = x	C = x	D = x

7	Cc1nn(-c2ccccc2)c2sc(C(=O)NC(=S)NC3CCSC3=O)cc12 (configuration not stated)
  A = 84.8*	B = x	C = 64.4	D = 15795*

8	CC(C)CN1C(=O)/C(=C\c2ccc(-c3ccc(S(N)(=O)=O)cc3)o2)SC1=S
  A = x	B = -10.7	C = x	D = x

9	CCN(CC)C(=O)/C=C/c1ccc2c(c1)OCO2
  A = 102.2	B = x	C = x	D = x

10	CC(C)(O)C(=O)/C=C/c1ccc2c(c1)OCO2
  A = 83.6*	B = -3.5	C = 69.4	D = 27857*

# Letter code: A = GIV Gai3 FP; B = HCMV NEC inh; C = GIV Gai FP conf; D = GIV Gai AS conf
11	O=c1c2c3c(sc2nc(SCc2ccccc2)n1Cc1ccco1)CCC3
  A = 104.2	B = -1.3	C = x	D = x

12	O=c1[nH]cc(NCCO)c(=O)[nH]1
  A = 66.0*	B = -7.3	C = 43.6*	D = 47941

13	CC(O)CNc1c[nH]c(=O)[nH]c1=O (configuration not stated)
  A = 100.3	B = -20.6	C = x	D = x

14	CCCCCCn1c(=O)[nH]c2nc3cc(N)c(C)cc3nc2c1=O
  A = 111.2	B = -38.9	C = x	D = x

15	CC(=O)Nc1cc2nc3[nH]c(=O)n(C)c(=O)c3nc2cc1C
  A = 69.3*	B = -41.9	C = 52.5	D = 35695

16	Cc1cc2nc3c(=O)n(C)c(=O)[nH]c3nc2cc1N=CN(C)C
  A = 87.6	B = -26.4	C = 11.5*	D = 26021*

17	CC(=O)Nc1cc2nc3[nH]c(=S)[nH]c(=O)c3nc2cc1C
  A = 109.2	B = -131.6	C = x	D = x

18	Cc1cccc(NC(=O)c2ccc3nnc(SCC(=O)Nc4ccccc4Cl)n3c2)c1
  A = 105.7	B = x	C = x	D = x

19	O=C1c2ccccc2C(=O)C1(c1ccccc1)N1CCN(c2ccccc2)CC1
  A = 102.9	B = 5.3	C = x	D = x

20	CCC(=O)Nc1cccc(-c2nc3ccccc3o2)c1
  A = x	B = -6.9	C = x	D = x

# Letter code: A = GIV Gai3 FP; B = HCMV NEC inh; C = GIV Gai FP conf; D = GIV Gai AS conf
21	O=C(Nc1cccc(-c2nc3ccccc3o2)c1)C(F)(F)F
  A = 70.3*	B = -55.5	C = 75	D = 32747

22	Cc1c(Cl)cccc1NC(=O)Nc1cccc(OCc2cc(=O)n3ccccc3n2)c1
  A = 99.0	B = x	C = x	D = x

23	Cc1ccn2c(=O)cc(COc3cccc(NC(=O)Nc4cccc(Cl)c4C)c3)nc2c1
  A = 88.3	B = x	C = 74.7	D = 35234

24	Cc1ccn2c(=O)cc(COc3ccc(NC(=O)Nc4cccc(Cl)c4)cc3)nc2c1
  A = 108.3	B = x	C = x	D = x

25	Cc1ccn2c(=O)cc(COc3ccc(NC(=O)Nc4ccc(Cl)cc4)cc3)nc2c1
  A = 82.5*	B = x	C = 75.6	D = 24165

26	COc1cc(/C=C2\C(=O)NC(=O)N(C)C2=O)ccc1OCc1ccc(C(=O)O)cc1
  A = 106.6	B = 0.3	C = x	D = x

27	O=C(O)COc1ccc(/C=C2\C(=O)NC(=S)N(c3ccc(Cl)cc3)C2=O)cc1Br
  A = 73.0*	B = -29.5	C = 33.9*	D = 55572

28	O=C(O)COc1ccc(/C=C2\C(=O)NC(=S)N(c3ccc(F)cc3)C2=O)cc1Br
  A = 91.8	B = -33.2	C = x	D = x

29	O=C1NC(=S)NC(=O)C1=Cc1ccc(OCc2ccc(C(=O)O)cc2)c(Br)c1
  A = 85.5	B = -19.5	C = 10.6*	D = 2330*

30	Cc1sc2nc(CSc3ncnc4sccc34)[nH]c(=O)c2c1C
  A = x	B = -3.1	C = x	D = x

# Printed as active in GIV Gai FP conf (from the list above):
item | SMILES | GIV Gai3 FP | GIV Gai FP conf | GIV Gai AS conf
12 | O=c1[nH]cc(NCCO)c(=O)[nH]1 | 66.0* | 43.6* | 47941
16 | Cc1cc2nc3c(=O)n(C)c(=O)[nH]c3nc2cc1N=CN(C)C | 87.6 | 11.5* | 26021*
27 | O=C(O)COc1ccc(/C=C2\C(=O)NC(=S)N(c3ccc(Cl)cc3)C2=O)cc1Br | 73.0* | 33.9* | 55572
29 | O=C1NC(=S)NC(=O)C1=Cc1ccc(OCc2ccc(C(=O)O)cc2)c(Br)c1 | 85.5 | 10.6* | 2330*

# Continued:
# Letter code: A = GIV Gai3 FP; B = HCMV NEC inh; C = GIV Gai FP conf; D = GIV Gai AS conf
31	Cc1cc(N2CCn3c(nc4ccccc43)C2)ccc1NC(=O)NC1CCCCC1
  A = 103.2	B = 0.1	C = x	D = x

32	CC(C)(C)OC(=O)N1CCC(C(=O)OCc2ccc(C#N)cc2)CC1
  A = x	B = -20.5	C = x	D = x

33	CCn1nc(N)c2c(O)[nH]c(=O)cc21
  A = 41.0*	B = x	C = 34.5*	D = 25115*

34	CCN(CC)C(=O)CSc1nc(N)cc(=O)[nH]1
  A = x	B = -10.6	C = x	D = x

35	CN(C(=O)CSc1nnc(-c2ccc(Cl)cc2)o1)C1CCCCC1
  A = 106.2	B = -13.1	C = x	D = x

36	O=C(NCc1ccccn1)C1CCN(c2ncnc3c2sc2ncccc23)CC1
  A = 104.6	B = -19.2	C = x	D = x

37	Nc1ccc2c(c1)CCC2=O
  A = 144.5	B = -20.9	C = x	D = x

38	O=C1CC(=O)c2ccc3c4c(ccc1c24)C(=O)CC3=O
  A = 74.2*	B = -46.5	C = 53.2*	D = 2272*

39	Cc1nn(-c2cccc(C(F)(F)F)c2)c2sc(C(=O)NC3=NCCS3)cc12
  A = x	B = -24.1	C = x	D = x

40	Cc1cc(C)cc(NS(=O)(=O)c2cc(-c3nc(C)cs3)cs2)c1
  A = 114.9	B = x	C = x	D = x

# Letter code: A = GIV Gai3 FP; B = HCMV NEC inh; C = GIV Gai FP conf; D = GIV Gai AS conf
41	CC1CSc2ccc(S(=O)(=O)N3CCOCC3)cc2N(CC(=O)N2CCCc3ccccc32)C1=O (configuration not stated)
  A = 99.5	B = -18.7	C = x	D = x

42	Cc1ccc2c(c1)c1c3n2C=CNC3CCC1 (configuration not stated)
  A = 82.1*	B = -75.0	C = 52.3*	D = 25813*

43	Cc1ccc2c(c1)c1c3n2CCCNC3CCC1 (configuration not stated)
  A = 101.7	B = -11.3	C = x	D = x

44	N#Cc1cccc(NC(=O)CNc2ccc3ccccc3c2)c1
  A = x	B = -19.5	C = x	D = x

45	O=C1c2ccccc2S(=O)(=O)c2cc(-c3nn[nH]n3)ccc21
  A = 97.0	B = -209.1	C = x	D = x

46	O=C1C(Cc2ccc(-c3nn[nH]n3)cc2)=C(c2ccccc2)S(=O)(=O)c2ccccc21
  A = 85.9	B = -20.7	C = 62.1	D = 36755*

47	COc1ccc(-c2noc(CN3CCCC(C(=O)O)C3)n2)cc1OC (configuration not stated)
  A = 101.3	B = -31.5	C = x	D = x

48	CC(=O)NCc1nc(-c2ccccc2Cl)no1
  A = 103.0	B = 13.5	C = x	D = x

49	CCN(CC)c1ccc2c(c1)CCCN2
  A = 52.9*	B = -15.5	C = 62.7	D = 11170*

50	O=S(=O)(c1ccc2c(c1)CCCN2)N1CCCCC1
  A = x	B = -33.0	C = x	D = x

# Letter code: A = GIV Gai3 FP; B = HCMV NEC inh; C = GIV Gai FP conf; D = GIV Gai AS conf
51	CCN(CC)S(=O)(=O)c1ccc2c(c1)nnn2CCC(=O)Nc1cccnc1
  A = 92.7	B = 5.8	C = x	D = x

52	O=C(O)c1cc2c3c(c1)C1C=CCC1C(c1ccc(F)cc1)N3CC1CC=CC21 (configuration not stated)
  A = 98.5	B = 4.6	C = x	D = x

53	O=C(O)c1cc2c3c(c1)C1C=CCC1C(c1ccccc1F)N3CC1CC=CC21 (configuration not stated)
  A = 74.1*	B = -18.9	C = 21.2*	D = 3685*

54	O=C(O)c1cc2c3c(c1)C1C=CCC1C(c1ccccc1)N3CC1CC=CC21 (configuration not stated)
  A = 81.4*	B = 8.7	C = 47.1*	D = 7304*

55	O=C(O)c1cc2c3c(c1)C1C=CCC1C(c1cccc([N+](=O)[O-])c1)N3CC1CC=CC21 (configuration not stated)
  A = 100.5	B = -7.0	C = x	D = x

56	CCCC(=O)Nc1ccc2c(c1)nc(Cn1cccn1)n2CC
  A = 103.2	B = -6.1	C = x	D = x

57	N#Cc1c(/N=C/c2cccnc2)sc2c1CCC2
  A = 86.7	B = -80.3	C = x	D = x

58	COc1cc(/C=C2/SC(=S)N(c3cccc(C(F)(F)F)c3)C2=O)ccc1OCC(=O)O
  A = 113.9	B = -16.8	C = x	D = x

59	O=C1/C(=C/c2ccc(Cl)cc2)C=C(c2ccccc2)N1c1ccccc1
  A = 125.4	B = x	C = x	D = x

60	O=C1/C(=C/c2ccc(Cl)cc2)C=C(c2ccccc2)N1c1ccc(Cl)cc1
  A = 82.2*	B = x	C = 103	D = 40363

61	CN1CCCc2cc(CN)ccc21
  A = 69.5*	B = -0.5	C = 53.6*	D = 4022*

62	CCOc1ccc(CC(=O)NCC(c2ccc3c(c2)CCCN3C)N2CCCC2)cc1 (configuration not stated)
  A = 105.2	B = -12.7	C = x	D = x

# Assay outcomes deposited in PubChem by ICCB-Longwood Screening Facility, Harvard Medical School.
